{
  "sequences": {"note": "By UniProt entry, the sequences of proteins in these tests, tags left out. Residues count along the entry.", "UniProt Q16853, whole entry": "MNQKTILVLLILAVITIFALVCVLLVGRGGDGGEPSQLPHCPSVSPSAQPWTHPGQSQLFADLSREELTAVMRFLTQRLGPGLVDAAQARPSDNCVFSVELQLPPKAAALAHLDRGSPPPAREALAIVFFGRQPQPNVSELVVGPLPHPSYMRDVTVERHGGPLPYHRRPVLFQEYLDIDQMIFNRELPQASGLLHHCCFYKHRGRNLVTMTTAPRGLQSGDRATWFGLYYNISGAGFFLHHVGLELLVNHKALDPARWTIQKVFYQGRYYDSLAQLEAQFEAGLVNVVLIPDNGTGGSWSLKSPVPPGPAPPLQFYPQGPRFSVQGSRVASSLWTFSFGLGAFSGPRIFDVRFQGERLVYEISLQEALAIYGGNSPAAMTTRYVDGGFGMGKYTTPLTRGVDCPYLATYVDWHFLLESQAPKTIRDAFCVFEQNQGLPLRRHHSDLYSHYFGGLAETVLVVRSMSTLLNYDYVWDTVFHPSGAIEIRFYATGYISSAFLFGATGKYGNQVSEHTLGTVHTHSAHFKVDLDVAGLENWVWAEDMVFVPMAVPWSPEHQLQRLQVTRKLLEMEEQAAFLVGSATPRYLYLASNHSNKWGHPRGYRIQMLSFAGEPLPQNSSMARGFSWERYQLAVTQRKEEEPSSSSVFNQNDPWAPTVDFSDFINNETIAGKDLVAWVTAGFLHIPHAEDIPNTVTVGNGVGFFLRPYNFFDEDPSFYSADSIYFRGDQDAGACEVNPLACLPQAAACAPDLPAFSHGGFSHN", "UniProt P19801, 20-751 limits assumed": "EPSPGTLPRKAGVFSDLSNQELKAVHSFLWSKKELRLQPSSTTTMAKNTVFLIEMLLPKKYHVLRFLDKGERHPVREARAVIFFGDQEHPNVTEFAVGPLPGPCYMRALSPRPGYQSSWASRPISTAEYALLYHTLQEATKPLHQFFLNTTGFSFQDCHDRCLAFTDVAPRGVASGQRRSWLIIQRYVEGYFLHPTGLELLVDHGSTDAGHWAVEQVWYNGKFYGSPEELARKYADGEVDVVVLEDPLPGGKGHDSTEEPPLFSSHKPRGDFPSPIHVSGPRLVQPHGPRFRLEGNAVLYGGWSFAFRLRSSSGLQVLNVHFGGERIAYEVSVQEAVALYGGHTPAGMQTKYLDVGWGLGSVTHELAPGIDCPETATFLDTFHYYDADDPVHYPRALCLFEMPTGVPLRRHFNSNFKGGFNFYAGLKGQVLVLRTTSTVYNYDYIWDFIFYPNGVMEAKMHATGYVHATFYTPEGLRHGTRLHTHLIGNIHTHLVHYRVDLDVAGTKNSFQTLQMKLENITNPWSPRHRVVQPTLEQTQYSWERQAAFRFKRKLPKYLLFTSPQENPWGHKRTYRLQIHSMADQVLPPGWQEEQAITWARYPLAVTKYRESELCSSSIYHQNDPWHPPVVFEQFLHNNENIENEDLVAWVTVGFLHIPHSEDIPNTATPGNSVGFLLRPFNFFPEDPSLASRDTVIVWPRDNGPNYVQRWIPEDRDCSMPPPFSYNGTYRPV"},
  "source": "patent US9926292B2",
  "about": "“Pyridinyl derivatives, pharmaceutical compositions and uses thereof” (Boehringer Ingelheim International GmbH, priority 2016, dated 2018)",
  "key": {"[1]": {"molecular_target": "AOC3 (Homo sapiens, UniProt Q16853)", "assay": "AOC3 biochemical assay (MAO-Glo)", "conditions": "read-out: AOC3 IC50; Table 1"}, "[2]": {"molecular_target": "AOC1 (Homo sapiens, UniProt P19801)", "assay": "AOC1 biochemical assay (Amplex Red)", "conditions": "read-out: AOC1 IC50; Table 1"}},
  "data": [
    {"smiles": "N=C(N)NC(=O)OCc1cccc(-c2cnc(NCc3ccon3)nc2)n1", "values": [
      {"measurement": "IC50", "setting": "[1]", "result": 3, "unit": "nM"},
      {"measurement": "IC50", "setting": "[2]", "result": 2370, "unit": "nM"}
    ]}
  ]
}
